Measured values from US9017735B2, “Modulation of KCNQ potassium channel activity for treatment of psychiatric disorders and the symptoms thereof” (Marquette University, priority 2009, dated 2015).

Test system: KCNQ potassium channels in prefrontal cortex
Experiment: Forced delayed alternation task in a T-maze (working memory), acute PCP model, brain microinfusion
Format: in vivo, rats
Conditions: phencyclidine administration in laboratory rodents; no dose stated
Method: This experimental paradigm involves the working memory, a prefrontal cortex dependent task, and is used to examine attention and memory function. This study was conducted to determine the role of KCNQ channels in PFC in regulation of memory. […] N=16 rats per treatment. *p<0.05 vs. Sal/Sal; +p<0.05 vs. Sal/PCP.
Microinjection and Behavioral Experiments. Stainless Steel cannulae were implanted bilaterally 1 mm above nucleus accumbens or implanted in prefrontal cortex. Rats were permitted a minimum of 7 days recovery from surgery. Drugs were injected using an injection needle that extended 1 mm beyond the tip of the guide cannulae. The volume of injection was 1 μl for Linopirdine and XE991 and 0.5 μl for other drugs and was delivered over 1 minute. In experiments where two drugs were delivered into accumbens, the microinjections were separated by 15 minutes. Behavioral activity then was monitored as discussed in the Results.
Drugs. All drugs were purchased from commercial sources and dissolved in saline. Linopirdine, XE991, and DMP543 were initially dissolved in 100% DMSO and diluted to final concentration of 25% DMSO (Linopirdine) and 40% (XE991 and DMP543). All drug doses were nmol per side and were injected bilaterally into the specified brain region.

## O=C1N(c2ccccc2)c2ccccc2C1(Cc1ccncc1)Cc1ccncc1 [Linopirdine, 3,3-bis(4-pyridinylmethyl)-1-phenylindolin-2-one]
  effect on deficits in forced delayed alternation task performance in a T-maze produced by phencyclidine (summary statement): attenuate or fully reverse
